Test system: E. coli (MG1655)
Type: cell-based, Escherichia coli
Conditions: E. coli MG1655, M9gluCAAT, 37°C, 20 h, inoculum ~250 cells/mL; max growth rate < 0.2 log(OD)/h; mode across three biological replicates with two technical replicates each
Procedure: For all experiments and E. coli strains, cells were grown in a medium (M9gluCAAT) with M9 salts (33.7 mM Na2HPO4, 22mM KH2PO4, 8.55 mM NaCl, 9.35 mM NH4Cl), 0.2% (w/v) glucose, 0.4% (w/v) casamino acids, 1 mM MgSO4, 0.3 mM CaCl2, 1 μg/mL thiamine, and trace elements (13.4 mM ethylene-diamine-tetra-acetic-acid (EDTA), 3.1 mM FeCl3-6H2O, 0.62 mM ZnCl2, 76 μM CuCl2-2H2O, 42 μM CoCl2-2H2O, 162 μM H3BO3, 8.1 μM MnCl2-4H2O). Prior to every experiment, cells were first inoculated into M9gluCAAT and grown to stationary phase at 37°C. […]
Except for the biofilm experiments, the strains used in this study were derived from MG1655 (ATCC 47076), which was used to estimate the minimum inhibitory concentration (MIC) for all the studied peptides (or peptoids) using a microplate reader (Figure 1A). […]
To determine the minimal inhibitory concentration (MIC) of the selected AMPs against either MG1655 or ATCC 25922 E. coli strains, exponentially growing cells were diluted in fresh medium to an OD = 10^−6 (~500 cells/mL) and mixed 50:50 with titrated AMP concentrations (which were chosen to be over a range that included the MIC) in a 96-well plate (flat bottom with low evaporation lid, 3595, Corning, Arizona, USA). […] OD curves were sampled every 5 min for a total of 48 h using a microplate reader (BioTek Synergy 2, Agilent Technologies Inc., California, USA). […]

CC[C@H](C)[C@H](NC(=O)CN)C(=O)NCC(=O)N[C@@H](C)C(=O)N[C@H](C(=O)N[C@@H](CC(C)C)C(=O)N[C@@H](CCCCN)C(=O)N[C@H](C(=O)N[C@@H](CC(C)C)C(=O)N[C@H](C(=O)N[C@H](C(=O)NCC(=O)N[C@@H](CC(C)C)C(=O)N1CCC[C@H]1C(=O)N[C@@H](C)C(=O)N[C@@H](CC(C)C)C(=O)N[C@H](C(=O)N[C@@H](CO)C(=O)N[C@@H](Cc1c[nH]c2ccccc12)C(=O)N[C@H](C(=O)N[C@@H](CCCCN)C(=O)N[C@@H](CCCNC(=N)N)C(=O)N[C@@H](CCCCN)C(=O)N[C@@H](CCCNC(=N)N)C(=O)N[C@@H](CCC(N)=O)C(=O)N[C@@H](CCC(N)=O)C(N)=O)[C@@H](C)CC)[C@@H](C)CC)[C@@H](C)O)[C@@H](C)O)C(C)C)C(C)C [Mltt, melittin]
MIC (mode MIC): 4 µM

Reference: article doi:10.1101/2025.04.10.648262, “Time-resolved phenotyping at subcellular resolution reveals shared principles and key trade-offs across antimicrobial peptide activities” (bioRxiv, 2026)
